{"source": "patent US8278267B2", "about": "(Amylin Pharmaceuticals, LLC, priority 2005, dated 2012)", "origin": "cited, not measured here", "key": {"[1]": {"details": "e.g., provoking marked hyperlactemia followed by hyperglycemia; cited from earlier work"}, "[2]": {"details": "cited from earlier work"}}, "data": [{"smiles": "CC[C@H](C)[C@H](NC(=O)[C@@H]1CCCN1C(=O)CNC(=O)[C@H](Cc1ccccc1)NC(=O)[C@H](CC(N)=O)NC(=O)[C@H](CC(N)=O)NC(=O)[C@H](CO)NC(=O)[C@H](CO)NC(=O)[C@H](Cc1c[nH]cn1)NC(=O)[C@@H](NC(=O)[C@H](CC(C)C)NC(=O)[C@H](Cc1ccccc1)NC(=O)[C@H](CC(N)=O)NC(=O)[C@H](C)NC(=O)[C@H](CC(C)C)NC(=O)[C@H](CCCNC(=N)N)NC(=O)[C@H](CCC(N)=O)NC(=O)[C@@H](NC(=O)[C@H](C)NC(=O)[C@@H]1CSSC[C@H](NC(=O)[C@@H](N)CCCCN)C(=O)N[C@@H](CC(N)=O)C(=O)N[C@@H]([C@@H](C)O)C(=O)N[C@@H](C)C(=O)N[C@@H]([C@@H](C)O)C(=O)N1)[C@@H](C)O)C(C)C)C(=O)N[C@@H](CC(C)C)C(=O)N1CCC[C@H]1C(=O)N1CCC[C@H]1C(=O)N[C@H](C(=O)N[C@@H](CC(N)=O)C(=O)N[C@H](C(=O)NCC(=O)N[C@@H](CO)C(=O)N[C@@H](CC(N)=O)C(=O)N[C@H](C(=O)N[C@@H](Cc1ccc(O)cc1)C(N)=O)[C@@H](C)O)C(C)C)[C@@H](C)O", "note": "[Pramlintide, ^25,28,29Pro-h-amylin]", "values": [{"measurement": "amylin activity in vivo", "setting": "[1]", "value": "show amylin activity in vivo"}, {"measurement": "solubility and stability characteristics compared to human amylin", "setting": "[2]", "value": "more desirable solubility and stability characteristics"}]}]}
